For this assay, the system named is NCI-H23. As to the kind of experiment: NCI tumour cell line growth inhibition, 48 h.

Experimental findings from ChEMBL document CHEMBL1201862, “PubChem BioAssay data set” (2004) are described below.

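Tested at 5 concentrations; 48 h exposure; 96-well plates; endpoints linearly interpolated, else capped at highest concentration. GI50 marks 50% less growth.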 The source made the active and inactive calls. Cut-off read from the data, not from the text of the source: active = GI50 up to about 1.1 µM and inactive = higher.

Regarding `CC1C(=O)C(C)C(c2ccccc2)N(C)C1c1ccccc1` (stereo unspecified), the GI50 was inactive: 70.1 µM.
